Publication PMC5430804, “Structural and biochemical insights of CypA and AIF interaction” (Scientific Reports, 2017)

Amino acid sequences for entries named in this document (tags omitted).
UniProt P62937, whole entry: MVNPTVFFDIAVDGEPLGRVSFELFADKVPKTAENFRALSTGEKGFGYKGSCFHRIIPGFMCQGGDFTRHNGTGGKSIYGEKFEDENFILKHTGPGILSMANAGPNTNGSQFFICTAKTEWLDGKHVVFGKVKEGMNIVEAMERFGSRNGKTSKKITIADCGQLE

Target: CypA peptide substrate
Experiment: not stated; binding of CypA wild type or R55A to a peptide substrate in the presence and absence of AIF(370-394) (10-fold excess) and CsA (Supplementary Fig. S8)

Kd: 57 nM
Substance: His-tagged Cyclophilin A (CypA) (from UniProt P62937 1-165) (enzyme)
